Earlier results, collected in US11471428B2, “Method and pharmaceutical composition for treating depression” (ZHEJIANG UNIVERSITY, priority 2017, dated 2022).

Conditions: not told; cited from earlier work

## Ibogaine
  blood-brain barrier permeability: capable of crossing a blood-brain barrier or show at least certain level of blood-brain barrier permeability
